The text below walks through data of PubChem BioAssay AID624246 (National Center for Advancing Translational Sciences (NCATS), 2012).

Protein sequences, listed by entry. Tags and fused reporters are not part of them.
UniProt P11308, whole entry: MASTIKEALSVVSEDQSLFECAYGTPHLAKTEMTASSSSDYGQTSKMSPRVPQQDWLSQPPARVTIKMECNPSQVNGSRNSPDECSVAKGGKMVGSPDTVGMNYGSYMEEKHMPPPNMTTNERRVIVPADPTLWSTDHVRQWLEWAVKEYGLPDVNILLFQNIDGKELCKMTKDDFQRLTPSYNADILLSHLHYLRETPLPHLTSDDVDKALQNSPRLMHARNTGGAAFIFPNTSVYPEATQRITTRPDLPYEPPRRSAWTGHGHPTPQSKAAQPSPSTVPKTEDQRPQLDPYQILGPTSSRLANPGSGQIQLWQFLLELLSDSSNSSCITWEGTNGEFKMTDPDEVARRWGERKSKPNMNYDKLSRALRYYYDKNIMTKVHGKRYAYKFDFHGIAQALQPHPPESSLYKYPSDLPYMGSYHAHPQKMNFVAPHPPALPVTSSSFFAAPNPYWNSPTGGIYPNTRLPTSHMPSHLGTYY

Several values for one entry are separate records, joined by “and”; a condition that tells them apart may be missing. Equal entries are not always repeated. The entries are a selection whose mix differs from that of the whole data set. Some of these compounds have results that are not shown, active ones among them. Activity calls are given as the source filed them. Calls come from the whole dose curve; as a rule, active = well fitted inhibition curve with a large enough effect in the polarisation, with a control signal flat; inconclusive = small, poorly fitted or top-dose-only effect, or effect the other way, or a change in a side signal; inactive = no such curve, though single readings can be large or run the other way; the % refers to the polarisation.

This assay addresses Transcriptional regulator ERG (Homo sapiens) (UniProt P11308). Briefly: qHTS for Small Molecule Inhibitors of the ERG Ets/DNA interaction. Note: % of control where 0% means no effect. Conditions: fluorescence polarization, His-ERG Ets domain / labelled DNA; at 76.9 µM (top of the series). From the text: The Ets family of proteins is a family of ~30 conserved transcription factors defined by the presence of an ~85 amino acid domain referred to as the Ets domain, which mediates sequence-specific DNA binding to a core DNA element GGAA/T.The Ets family member ERG has been linked to several neoplasms. […] More extensive studies of the effects of over-expression of ERG in prostate cells have recently been carried out and have shown that over-expression of ERG results in increased invasion. […] We will carry out a high throughout screen to identify inhibitors of the interaction between ERG and DNA using a fluorescence polarization (FP) assay with a His-tagged ERG Ets domain and fluorescently-labeled DNA probes to develop small molecule inhibitors of this interaction as probes to test this hypothesis and lay the groundwork for the development of targeted therapies against ERG. NIH Molecular Libraries Probe Production Network [MLPCN] NIH Chemical Genomics Center [NCGC] Grant: NS066464 PI Name: John Bushweller, University of Virgina
1.5 ul of protein solution (1 uM ERG domain in 300mM KCl, 50mM Tris-HCl, 1mM EDTA, 1mM DTT, pH 7.5); 20 nl Control plate and compound library plate; 1.5 ul mixture of 5 nM Fluorescein-DNA and 100nM Texas-615-DNA solution in same buffer as above solution; measure fluorescence polarization sequentially for fluorescein (Excitation = 480 nm, Emission = 535s, 535p nm) and Texas red (Excitation = 555 nm, Emission = 632s, 632p nm).
With `O=C(NCC1(N2CCCCC2)CCCCC1)c1cccc(Cl)c1`, the FP activity, negative = inhibition is inactive: -8.24%.

Consider `COc1ccc(C(=O)NCC2(N(C)C)CCCCC2)cc1Cl`, for which the FP activity, negative = inhibition is inactive: -10.9%.

As to `COc1cccc(C(=O)NCC2(N3CCCCC3)CCCCC2)c1`, the FP activity, negative = inhibition was inactive: 6.88%.

Turning to `COc1ccc(Cl)cc1C(=O)NCC1(N(C)C)CCCCC1`, the FP activity, negative = inhibition was inactive: 8.56%.

For `COc1cc(C(=O)NCC2(N(C)C)CCCCC2)c([N+](=O)[O-])cc1OC`, the FP activity, negative = inhibition was inactive: 1.55%.

Regarding `CN(C)C1(CNC(=O)c2ccc(Br)cc2)CCCCC1`, the FP activity, negative = inhibition was inactive: 7.3%.

In the case of `CN(C)c1cccc(C(=O)NCC2(N(C)C)CCCCC2)c1`, the FP activity, negative = inhibition was inactive: -0.293%.

On to `CC(C)Oc1ccc(C(=O)NCC2(N(C)C)CCCCC2)cc1`, for which the FP activity, negative = inhibition was inactive: -5.51% and inactive: 23.2%.

Turning to `O=C(OCCN1CCCC1)C(O)(c1ccccc1)c1ccccc1`, the FP activity, negative = inhibition is inactive: 2.14%.

As for `Cc1cccc(C(=O)NCC2(N(C)C)CCCCC2)c1`, the FP activity, negative = inhibition was inactive: -4.7%.

As for `COc1cc(C(=O)NCC2(N(C)C)CCCCC2)cc(OC)c1OC`, the FP activity, negative = inhibition is inactive: -3.77%.

As for `COc1ccc(Br)c(C(=O)NCC2(N3CCCCC3)CCCCC2)c1`, the FP activity, negative = inhibition is inactive: 1.77%.

Regarding `CC(C)COc1ccc(C(=O)NCC2(N(C)C)CCCCC2)cc1`, the FP activity, negative = inhibition was inactive: 0.168%.

In the case of `O=C(OC1CN2CCC1CC2)C(CO)(c1ccccc1)c1ccccc1` (stereo not given), the FP activity, negative = inhibition was inactive: -2.47%.

Turning to `COc1cccc(C(=O)NCC2(N3CCOCC3)CCCCC2)c1`, the FP activity, negative = inhibition was inactive: 1.9%.

For the compound `CN(C)C1(CNC(=O)c2ccccc2F)CCCCC1`, the FP activity, negative = inhibition was inactive: 1.19%.

Regarding `Cc1ccc(C(=O)NCC2(N3CCCCC3)CCCCC2)cc1`, the FP activity, negative = inhibition is inactive: 4.78%.

In the case of `CC(C)N1C(=O)CC2(CCN(CCOC(=O)C(O)(c3ccccc3)c3ccccc3)CC2)C1=O`, the FP activity, negative = inhibition is inactive: 0.752%.

For the compound `CCN(CC)CC(C)C(C)OC(=O)C(O)(c1ccccc1)c1ccccc1` (stereo not given), the FP activity, negative = inhibition is inactive: 0.231%.

As to `CN(C)C1(CNC(=O)c2cccc(Cl)c2)CCCCC1`, the FP activity, negative = inhibition is inactive: -30.3%.

Regarding `COc1cc(SC)ccc1C(=O)NCC1(N(C)C)CCCCC1`, the FP activity, negative = inhibition is inactive: -11.4%.

For the compound `CN1[C@@H]2CC[C@H]1CC(OC(=O)C(O)(c1ccccc1)c1ccccc1)C2` (stereo not given in full), the FP activity, negative = inhibition was inactive: -5.02%.

Turning to `O=C(NCC1(N2CCCCC2)CCCCC1)c1cc([N+](=O)[O-])ccc1Cl`, the FP activity, negative = inhibition was inactive: -7.14%.

Consider `Cc1cc(C(=O)NCC2(N3CCCCC3)CCCCC2)ccc1[N+](=O)[O-]`, for which the FP activity, negative = inhibition was inactive: 10.3%.

As for `CCN1CCCC(OC(=O)C2(O)c3ccccc3C=Cc3ccccc32)C1` (stereo not given), the FP activity, negative = inhibition was inactive: -2.01%.

In the case of `O=C(NCC1(N2CCCCC2)CCCCC1)c1cccc(Br)c1`, the FP activity, negative = inhibition was inactive: -14.3%.

On to `COc1ccc(C(=O)NCC2(N(C)C)CCCCC2)cc1`, for which the FP activity, negative = inhibition was inactive: -11.8%.

With `CCOc1cccc(C(=O)NCC2(N(C)C)CCCCC2)c1`, the FP activity, negative = inhibition was inactive: -2.38%.

As to `C=CCN1CCN(CCOC(=O)C(O)(c2ccccc2)c2ccccc2)CC1`, the FP activity, negative = inhibition is inactive: -8.87%.

As to `O=C(NCC1(N2CCCCC2)CCCCC1)c1cc(F)c(F)cc1Cl`, the FP activity, negative = inhibition is inactive: 4.53%.

As for `CCCCOc1ccccc1C(=O)NCC1(N(C)C)CCCCC1`, the FP activity, negative = inhibition was inactive: 0.638%.

As for `CN(C)C1(CNC(=O)c2ccccc2[N+](=O)[O-])CCCCC1`, the FP activity, negative = inhibition is inactive: 4.2%.

`Cc1ccccc1C(=O)NCC1(N2CCCCC2)CCCCC1`: the FP activity, negative = inhibition is inactive: 8.37%.

As to `CN(C)C1CCCC1OC(=O)C(O)(c1ccccc1)c1ccccc1` (stereo not given), the FP activity, negative = inhibition was inactive: -2.92%.

As for `CN(C)c1ccc(C(=O)NCC2(N(C)C)CCCCC2)cc1`, the FP activity, negative = inhibition is inactive: 2.94%.
